Where two headings read alike, the source gives them in different places. A value given as a limit tells only on which side of the number the result lay.

For series [1] the following is noted: rabbits, daily 10-mg/kg i.v.
The conditions of series [2]: cited from earlier work.
For series [3] the following is noted: rabbits, daily 10-mg/kg i.v., agar dilution method; cited from earlier work.
The conditions of series [4]: cited from earlier work. This is another data set of the same source.
For series [5] the following is noted: rats, 20-mg/kg i.v.
The conditions of series [6]: rats, 20-mg/kg i.v., agar dilution method; cited from earlier work.

Regarding ramoplanin, in series [1], the “12-h concentration (C12)” value turned out to be 2.5 µM, the “12-h concentration (C12) as multiple of MIC” value is listed as 3 × MIC, the “maximal plasma level (Cmax)” value was found to be 11 µM and the “maximal plasma level (Cmax) as multiple of MIC” value came out at 14 × MIC. Further, the “complication of parenteral administration in humans” value in series [2] is “hemolysis”. Further, the “systemic absorption after oral dosing” value in series [2] (orally dosed) is on record as “not systemically absorbed”. In addition, in series [3], the “12-h concentration (C12)” value was 6.4 µg/mL and the “maximal plasma level (Cmax)” value was 28 µg/mL. The aqueous solubility in series [4] was over 100 mg/mL. Besides, in series [5], the C12 came out at 0.8 µM, the “C12 as multiple of MIC” value was 1 × MIC, the Cmax was 31 µM and the “Cmax as multiple of MIC” value was 39 × MIC. Further, the maximum concentration (Cmax) in series [6] is 79 µg/mL.

The values above are taken from PMC4249368 (Antimicrobial Agents and Chemotherapy, 2014).
